Values quoted from earlier work as cited in US20190038588A1, “NOVEL CLASS OF COMPOUNDS FOR THE TREATMENT OF CARDIOVASCULAR DISEASE” (STICHTING KATHOLIEKE UNIVERSITEIT, priority 2016, published 2019).
pIC50: −log10 of the molar value.

Target: T1, HMG-CoA reductase (Homo sapiens, UniProt P04035)
T1 sequence (P04035 1-888): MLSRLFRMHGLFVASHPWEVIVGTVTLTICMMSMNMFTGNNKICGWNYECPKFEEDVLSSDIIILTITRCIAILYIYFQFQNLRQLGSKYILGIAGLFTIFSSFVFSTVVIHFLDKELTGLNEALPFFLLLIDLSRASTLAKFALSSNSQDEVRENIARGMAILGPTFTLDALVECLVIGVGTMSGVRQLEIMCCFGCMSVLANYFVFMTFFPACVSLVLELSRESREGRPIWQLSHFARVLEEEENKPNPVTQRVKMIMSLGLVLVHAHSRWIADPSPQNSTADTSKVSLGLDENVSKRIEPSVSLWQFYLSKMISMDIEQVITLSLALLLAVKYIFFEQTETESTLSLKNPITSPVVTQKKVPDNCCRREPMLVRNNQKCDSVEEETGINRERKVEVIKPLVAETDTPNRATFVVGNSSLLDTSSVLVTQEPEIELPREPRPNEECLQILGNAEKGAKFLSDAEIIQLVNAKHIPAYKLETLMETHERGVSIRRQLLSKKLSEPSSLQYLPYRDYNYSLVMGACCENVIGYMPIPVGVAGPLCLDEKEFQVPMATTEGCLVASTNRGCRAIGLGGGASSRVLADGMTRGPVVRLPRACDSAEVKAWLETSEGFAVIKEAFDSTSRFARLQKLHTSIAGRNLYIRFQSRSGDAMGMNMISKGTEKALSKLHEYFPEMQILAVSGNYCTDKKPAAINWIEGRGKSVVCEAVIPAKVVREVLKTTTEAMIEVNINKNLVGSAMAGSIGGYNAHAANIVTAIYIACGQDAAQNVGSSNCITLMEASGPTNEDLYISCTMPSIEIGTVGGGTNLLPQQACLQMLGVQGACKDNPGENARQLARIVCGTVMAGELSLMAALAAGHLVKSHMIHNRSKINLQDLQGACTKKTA
Settings: Kajinami K, 2003; Istvan ES, 2001; cited from earlier work

Structure (SMILES)	pIC50
CC(C)c1c(C(=O)Nc2ccccc2)c(-c2ccccc2)c(-c2ccc(F)cc2)n1CC[C@@H](O)C[C@@H](O)CC(=O)O [atorvastatin carboxylic acid, reference compound]	8.10
CC[C@H](C)C(=O)O[C@H]1C[C@H](O)C=C2C=C[C@H](C)[C@H](CC[C@@H](O)C[C@@H](O)CC(=O)O)[C@H]21 [pravastatine]	7.34
